Data reported in patent publication US20150126388A1, “SURFACE ENHANCED RAMAN SPECTROSCOPY (SERS) MARKER CONJUGATES AND METHODS OF THEIR PREPARATION” (Agency for Science, Technolgy and Research, priority 2012, published 2015).

System: OSCC cells
Experiment: Cell viability study (CCK8) in OSCC cells
Assay type: cell-based
Settings: 24 hours incubation, FIG. 7
Protocol: Five thousand OSCC cells were seeded in a 96-well plate for 24 hours before introducing each well with EGFR-PEG Os—Au nanoparticles (OM-NP(PEG)-L constructs) (43 pM). The OSCC cells were allowed to incubate for another 24 hours, after which 10 μl of CCK8 (cell counting proliferation kit, Sigma-Aldrich) was added to each well. Cell absorbance was measured with a SpectraMax 384 Plus spectral analyser after 4 hours at 450 nm excitation.
The cytotoxicity of these OM-NP(PEG)-L constructs were assessed with the OSCC cell line (epidermoid carcinoma), in which EGFR is frequently overexpressed.

Os3(CO)10(μ-H)2
cytotoxicity to OSCC cells: clearly cytotoxic
